Source: patent publication US7019019B2, “Matriptase inhibitors and methods of use” (Dendreon Corporation, priority 2002, dated 2006)

Sequences of proteins named here, by UniProt entry; tags and fusion partners are left off. Residues count along the entry.
UniProt Q9UL52, 192-423 limits assumed: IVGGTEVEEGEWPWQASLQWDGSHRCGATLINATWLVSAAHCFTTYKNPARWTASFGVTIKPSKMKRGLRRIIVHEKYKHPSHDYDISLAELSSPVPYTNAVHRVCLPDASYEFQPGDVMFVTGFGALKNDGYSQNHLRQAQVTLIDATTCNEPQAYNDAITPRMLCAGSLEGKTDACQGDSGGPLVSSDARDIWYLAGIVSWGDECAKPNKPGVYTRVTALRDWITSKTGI
UniProt Q9BYE2, 326-586 limits assumed: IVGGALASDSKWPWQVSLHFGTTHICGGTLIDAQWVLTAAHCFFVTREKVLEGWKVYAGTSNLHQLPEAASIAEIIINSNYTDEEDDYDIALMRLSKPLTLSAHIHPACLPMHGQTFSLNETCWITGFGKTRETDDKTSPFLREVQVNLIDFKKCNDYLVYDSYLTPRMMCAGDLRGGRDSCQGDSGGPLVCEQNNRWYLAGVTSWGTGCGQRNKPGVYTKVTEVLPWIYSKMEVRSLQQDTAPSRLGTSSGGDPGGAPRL
UniProt P00742, 235-488 limits assumed: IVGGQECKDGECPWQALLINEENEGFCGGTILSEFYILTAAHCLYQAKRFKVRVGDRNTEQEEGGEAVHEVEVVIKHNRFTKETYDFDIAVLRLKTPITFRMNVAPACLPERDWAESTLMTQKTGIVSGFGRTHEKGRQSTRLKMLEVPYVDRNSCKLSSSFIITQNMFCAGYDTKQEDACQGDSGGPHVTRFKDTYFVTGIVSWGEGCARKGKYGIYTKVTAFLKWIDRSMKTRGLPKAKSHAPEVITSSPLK
UniProt P00742, 41-179 partner limits assumed: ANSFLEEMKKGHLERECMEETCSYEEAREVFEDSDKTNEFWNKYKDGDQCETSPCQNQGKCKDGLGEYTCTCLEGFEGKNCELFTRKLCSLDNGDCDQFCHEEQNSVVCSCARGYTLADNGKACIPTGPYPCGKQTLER
UniProt P00747, 581-810 limits assumed: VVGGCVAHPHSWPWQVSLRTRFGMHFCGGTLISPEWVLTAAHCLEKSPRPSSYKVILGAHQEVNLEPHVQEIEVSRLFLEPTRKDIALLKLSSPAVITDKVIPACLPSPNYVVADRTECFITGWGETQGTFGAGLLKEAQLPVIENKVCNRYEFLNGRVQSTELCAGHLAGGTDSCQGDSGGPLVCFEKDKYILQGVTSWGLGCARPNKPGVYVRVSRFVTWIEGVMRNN
UniProt P00747, 97-580 partner limits assumed: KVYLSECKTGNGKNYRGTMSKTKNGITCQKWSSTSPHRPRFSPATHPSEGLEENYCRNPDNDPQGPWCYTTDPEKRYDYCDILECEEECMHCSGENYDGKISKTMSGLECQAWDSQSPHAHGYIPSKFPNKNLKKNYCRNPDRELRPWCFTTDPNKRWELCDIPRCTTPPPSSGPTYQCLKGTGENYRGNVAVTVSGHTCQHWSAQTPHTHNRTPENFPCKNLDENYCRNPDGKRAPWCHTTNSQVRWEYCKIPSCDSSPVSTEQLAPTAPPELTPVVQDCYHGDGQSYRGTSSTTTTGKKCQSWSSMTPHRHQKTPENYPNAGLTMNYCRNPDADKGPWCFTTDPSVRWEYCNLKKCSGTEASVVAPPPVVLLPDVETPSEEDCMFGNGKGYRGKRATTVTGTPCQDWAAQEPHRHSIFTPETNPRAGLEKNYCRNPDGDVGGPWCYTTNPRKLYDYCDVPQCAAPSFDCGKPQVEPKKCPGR
UniProt Q9Y5Y6, whole entry C731S: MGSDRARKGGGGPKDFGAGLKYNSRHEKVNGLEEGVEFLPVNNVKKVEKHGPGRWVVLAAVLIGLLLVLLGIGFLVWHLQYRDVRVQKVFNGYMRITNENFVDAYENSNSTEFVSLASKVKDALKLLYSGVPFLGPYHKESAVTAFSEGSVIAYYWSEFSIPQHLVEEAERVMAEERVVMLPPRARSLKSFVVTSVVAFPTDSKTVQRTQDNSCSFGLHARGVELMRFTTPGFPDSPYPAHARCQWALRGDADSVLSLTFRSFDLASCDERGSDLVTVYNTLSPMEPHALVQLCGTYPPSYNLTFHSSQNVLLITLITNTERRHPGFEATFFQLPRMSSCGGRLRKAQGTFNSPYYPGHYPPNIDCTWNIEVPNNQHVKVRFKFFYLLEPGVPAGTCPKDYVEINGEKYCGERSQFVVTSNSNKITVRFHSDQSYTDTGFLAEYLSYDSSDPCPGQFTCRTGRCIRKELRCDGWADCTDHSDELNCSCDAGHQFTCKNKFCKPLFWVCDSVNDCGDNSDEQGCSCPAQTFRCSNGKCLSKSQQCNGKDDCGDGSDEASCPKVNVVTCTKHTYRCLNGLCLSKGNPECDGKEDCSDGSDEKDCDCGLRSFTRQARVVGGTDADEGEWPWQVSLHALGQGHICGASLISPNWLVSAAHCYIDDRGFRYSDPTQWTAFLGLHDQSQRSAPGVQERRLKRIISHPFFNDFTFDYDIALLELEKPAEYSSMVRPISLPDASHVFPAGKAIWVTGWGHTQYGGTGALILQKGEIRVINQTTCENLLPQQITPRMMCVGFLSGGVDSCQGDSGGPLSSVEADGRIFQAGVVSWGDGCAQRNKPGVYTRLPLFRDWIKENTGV

How the values were obtained:
[1] = molecular target: (Homo sapiens, UniProt Q9UL52); assay: In vitro enzyme assay for specificity: Endothelin 1; format: biochemical; conditions: read-out: Ki Endothelin 1
[2] = molecular target: (Homo sapiens, UniProt Q9BYE2); assay: In vitro enzyme assay for specificity: Endothelin 2; format: biochemical; conditions: read-out: Ki Endothelin 2
[3] = molecular target: Factor Xa (Homo sapiens, UniProt P00742); assay: Factor Xa chromogenic assay (S-2765); conditions: read-out: Ki FXa
Experimental: (§1) The ability of compounds to act as a selective inhibitor of matriptase activity was assessed by determining the concentration of test-compound which inhibited the activity of matriptase by 50%, (IC50) as described in Example A, and comparing IC50 value for matriptase to that determined for all or some of the following serine proteases: thrombin, recombinant tissue plasminogen activator (rt-PA), plasmin, activated protein C, chymotrypsin, factor Xa and trypsin.
(§2) The buffer used for all assays was HBSA (10 mM HEPES, pH 7.5, 150 mM sodium chloride, 0.1% bovine serum albumin).
(§3) The assay for IC50 determinations was conducted by combining in appropriate wells of a Corning microtiter plate, 50 microliters of HBSA, 50 microliters of the test compound at a specified concentration (covering a broad concentration range) diluted in HBSA (or HBSA alone for V0 (uninhibited velocity) measurement), and 50 microliters of the enzyme diluted in HBSA. […] The initial velocity of chromogenic substrate hydrolysis was measured by the change in absorbance at 405 nm using a Thermo Max® Kinetic Microplate Reader over a 5 minute period in which less than 5% of the added substrate was utilized. […]
Factor Xa catalytic activity was determined using the chromogenic substrate S-2765 (N-benzyloxycarbonyl-D-arginine-L-glycine-L-arginine-p-nitro aniline), obtained from DiaPharma Group (Franklin, Ohio). […]

[4] = molecular target: α-thrombin (Homo sapiens, UniProt P00734); assay: Thrombin (fIIa) chromogenic assay (Pefachrome t-PA); conditions: read-out: Ki Thrombin
Experimental: as §1, §2, §3
Enzyme activity was determined using the chromogenic substrate, Pefachrome t-PA (CH3SO2-D-hexahydrotyrosine-glycyl-L-Arginine-p-nitroaniline, obtained from Pentapharm Ltd.). […]

[5] = molecular target: plasmin (Homo sapiens, UniProt P00747); assay: Plasmin chromogenic assay (S-2366); conditions: read-out: Ki Plasmin
Experimental: as §1, §2, §3
Plasmin catalytic activity was determined using the chromogenic substrate, S-2366 [L-pyroglutamyl-L-prolyl-L-arginine-p-nitroaniline hydrochloride], which was obtained from DiaPharma group. […]

[6] = molecular target: Matriptase (Homo sapiens, UniProt Q9Y5Y6); assay: Amidolytic assay for inhibition of serine protease activity of matriptase or MTSP1; conditions: read-out: Ki Matriptase

- Ki [1]: > 2500 nM
- Ki [2]: > 2500 nM
- Ki [3]: 500 to 2500 nM
- Ki [4]: 500 to 2500 nM
- Ki [5]: 500 to 2500 nM
- Ki [6]: 100 to 250 nM
Compound: N=C(N)c1cccc(CC(N)(C=CC(=O)O)C(=O)NCC(=O)NCc2ccc(C(=N)N)s2)c1 (stereo not drawn)
